Assay results taken from patent US20210355166A1, “ANALGESICS AND METHODS OF USE THEREOF” (priority 2018, published 2021).

Protein sequences, listed by entry. Tags and fused reporters are not part of them.
UniProt P33535, whole entry: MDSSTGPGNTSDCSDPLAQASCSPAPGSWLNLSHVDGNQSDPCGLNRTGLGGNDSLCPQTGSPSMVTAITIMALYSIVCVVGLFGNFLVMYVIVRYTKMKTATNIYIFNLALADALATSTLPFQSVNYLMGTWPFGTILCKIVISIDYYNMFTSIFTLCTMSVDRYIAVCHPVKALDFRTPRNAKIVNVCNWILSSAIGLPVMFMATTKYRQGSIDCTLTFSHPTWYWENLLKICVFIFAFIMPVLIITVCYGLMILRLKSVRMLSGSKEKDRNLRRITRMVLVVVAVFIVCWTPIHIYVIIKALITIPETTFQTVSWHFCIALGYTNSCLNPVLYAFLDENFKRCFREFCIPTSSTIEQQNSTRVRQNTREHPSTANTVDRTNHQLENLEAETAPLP
UniProt P35372, whole entry: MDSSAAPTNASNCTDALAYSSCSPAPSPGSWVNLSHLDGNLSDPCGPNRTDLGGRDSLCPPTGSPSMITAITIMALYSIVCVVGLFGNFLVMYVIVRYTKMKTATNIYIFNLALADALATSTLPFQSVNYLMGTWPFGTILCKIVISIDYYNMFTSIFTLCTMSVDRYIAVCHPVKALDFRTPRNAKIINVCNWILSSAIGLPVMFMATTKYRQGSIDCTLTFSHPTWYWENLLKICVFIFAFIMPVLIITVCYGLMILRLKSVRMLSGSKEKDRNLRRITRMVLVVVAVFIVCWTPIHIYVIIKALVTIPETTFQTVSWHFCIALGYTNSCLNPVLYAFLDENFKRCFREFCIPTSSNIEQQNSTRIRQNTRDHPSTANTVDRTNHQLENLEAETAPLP

Legend:
[1] = molecular target: T1, MOPr (Rattus norvegicus, UniProt P33535); test: Patch-clamp recordings of GIRK currents in rat locus coeruleus (LC) neurons; type: cell-based; conditions: 10-30 μM
T1 construct: which natively express MOPr but not DOPr or KOPr; from tissue; host or cells: brain slices with locus coeruleus neurons, male Sprague Dawley rats
Experimental: Briefly, rats were anesthetized with isoflurane and decapitated. The brain was dissected and mounted in a vibratome chamber (Leica biosystem, VT100, Wetzlar, Germany) in order to prepare horizontal brain slices (280 μm). […] Slices were incubated in warm oxygenated ACSF for at least 30 min before recording. Slices were transferred to the recording chamber while warm ACSF (34° C.) was superfused at a rate of ˜2 mL/min. Whole-cell voltage-clamp recordings were acquired from LC neurons with Multiclamp 700B amplifier (Molecular Devices, CA, USA) at holding potential of −60 mV. […] Continuous current recordings were collected in chart mode at 500 Hz and filtered at 20-50 Hz using Axograph X (Axograph Scientific, Sydney, Australia). Series resistance monitored throughout the experiments and remained <15 MΩ; otherwise the data were discarded. Outward current was measured as the difference between baseline current and peak current of drug application.

[2] = molecular target: T2, human MOPr (hMOPr) (Homo sapiens, UniProt P35372); test: Inhibition of forskolin induced cAMP formation in HEK cells expressing hMOPr; type: cell-based; conditions: 10 μM
T2 construct: expressed in transfected cells; host or cells: HEK cells
Experimental: Procedure for measuring the level of intracellular cAMP produced upon modulation of adenylate cyclase activity by G-protein-coupled receptors (GPCRs). To test the functional interaction between opioids, and opioid-like compounds, and specific opioid GPCRs by measuring changes in intracellular cAMP levels relative to basal levels. The assay can measure agonist and antagonist activity on GPCRs by stimulating cells to either increase or decrease intracellular cAMP levels.
The assay is performed in a 384-well plate and each data point is performed in triplicate. The test compounds should be analyzed on the same plate as controls and cAMP standards. The number of compounds to be screened for activity will determine the volume of reagents and cells required for each experiment. The test compounds, controls and cAMP standards can be added to the plate in advance or while the cells are incubating with stimulation buffer. The plate should be sealed with TopSeal adhesive sealing film to avoid evaporation.
Assay background: Detection of cAMP is based on the competition between intracellular cAMP and biotinylated cAMP linked streptavidin-coated donor beads for anti-cAMP conjugated acceptor beads. When the donor and acceptor beads are in close proximity a signal emitted at 520-620 nm is detected using the Envision multilabel plate reader. […]

## CC(C)[C@H](NC(=O)[C@@H](NC(=O)[C@@H](N)Cc1ccc(O)cc1)C(C)C)C(=O)N[C@@H](Cc1ccccc1)C(=O)O [3e, H-YVVF-OH]
[1]
  activity in LC neurons: inactive

## CC(C)[C@H](NC(=O)[C@@H](NC(=O)[C@@H](N)Cc1ccc(O)cc1)C(C)C)C(=O)N[C@@H](Cc1ccccc1)C(N)=O [3f, H-YVVF-NH2]
[1]
  activity in LC neurons: inactive

## CC(C)[C@H](NC(=O)[C@@H](NC(=O)[C@@H](N)Cc1ccccc1)C(C)C)C(=O)N[C@@H](Cc1ccccc1)C(N)=O [1h, H-FVVF-NH2]
[2]
  activity in cAMP screen: less active
